Tested on: Ehrlich carcinoma cells
Experiment: Tumor growth, metastasis and survival of CBA mice implanted with Ehrlich carcinoma cells
Conditions: Charts V and VI

Substance: Cu(II)(salicylate)2
- survival of the host organisms: prolonged survival of the host organisms

From patent publication US4952607A, “Copper complex for treating cancer” (priority 1986, dated 1990)
